Assay [1] concerns the target norepinephrine transporter (Rattus norvegicus, UniProt Q9WTR4). Briefly: Binding at native NE transporter. To be noted: read-out: rNE Uptk Ki; native transporter, rNE Uptk. The method, then: (§1) The binding properties of the compounds of the present invention were evaluated at one or more cloned receptors or native, tissue-derived transporters, using protocols described below.
(§2) The methods to determine binding affinity at native transporters are described in the following publications: 5HT transporter and NE transporter (Owens et al., 1997), and DA transporter (Javitch et al, 1984).

By UniProt entry, the sequences of proteins in these tests, tags left out. Residues count along the entry.
UniProt Q9WTR4, 1-597: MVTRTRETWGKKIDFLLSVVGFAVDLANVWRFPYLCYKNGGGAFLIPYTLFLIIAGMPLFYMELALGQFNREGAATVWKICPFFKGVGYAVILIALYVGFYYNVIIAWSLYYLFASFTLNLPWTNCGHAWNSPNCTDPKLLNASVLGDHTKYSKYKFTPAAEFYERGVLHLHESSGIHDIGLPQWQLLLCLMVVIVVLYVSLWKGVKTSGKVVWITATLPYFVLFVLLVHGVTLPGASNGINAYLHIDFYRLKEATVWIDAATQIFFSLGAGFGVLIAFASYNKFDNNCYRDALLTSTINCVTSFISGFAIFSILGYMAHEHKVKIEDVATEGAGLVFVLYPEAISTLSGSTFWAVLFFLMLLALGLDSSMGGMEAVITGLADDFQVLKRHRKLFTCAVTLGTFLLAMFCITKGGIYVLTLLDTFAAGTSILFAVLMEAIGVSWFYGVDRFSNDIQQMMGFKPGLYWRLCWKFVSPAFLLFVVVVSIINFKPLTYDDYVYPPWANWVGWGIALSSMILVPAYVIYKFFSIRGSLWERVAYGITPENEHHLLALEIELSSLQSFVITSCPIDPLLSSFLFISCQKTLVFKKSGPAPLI

Assay [2] has as its system norepinephrine transporter. Briefly: Binding at native NE transporter. To be noted: Ki at rNE Uptk divided by Ki at hGAL3. The method, then: as §1, §2
Assay [3] has as its system male Sprague-Dawley rats. As to the kind of experiment: Rat Forced Swim Test (FST). To be noted: conclusion of the study. The method, then:
The procedure used in this study was similar to that previously described (Porsolt, et al., 1978), except the water depth (30 cm in this procedure). The greater depth in this test prevented the rats from supporting themselves by touching the bottom of the cylinder with their feet. Swim sessions were conducted by placing rats in individual plexiglass cylinders (46 cm tall×20 cm in diameter) containing 23-25° C. water 30 cm deep (Porsolt, et al. used a depth of only 15 cm; also, see Detke, et al., 1995). Two swim tests were conducted always between 1200 and 1800 hours: an initial 15-min pretest followed 24 h later by a 5-minute test. Drug treatments were administered 60 minutes before the 5-minute test period. All other test sessions were conducted between 1300 to 1700 hours. Following all swim sessions, rats were removed from the cylinders, dried with paper towels and placed in a heated cage for 15 minutes and returned to their home cages. All test sessions were videotaped using a Panasonic color video camera and recorder for scoring later.
Male Sprague-Dawley rats (Taconic Farms, N.Y.) were used in all experiments. Rats were housed in pairs and maintained on a 12:12 h light-dark cycle. Rats were handled for 5 minutes each day for 5 days prior to behavioral testing.
The rat's behavior was rated at 5 second intervals during the 5 minute test as one of the following:
1. […]

The structures appear in SMILES notation.

Broadly, the Ki is the dissociation constant of the complex between target and ligand, obtained from inhibition or displacement. For the compound `COC[C@@H]1[C@@H](c2ccccc2)OCCN1c1nc(Nc2ccc(C)cc2)cc(N2CCCCC2)n1`, in assay [1], the inhibition constant (Ki) worked out at 37.6 µM. For the same compound, the selectivity ratio rNE Uptk in assay [2] was above 100. The “Overall profile in the Forced Swim Test” value in assay [3] is “may have antidepressant properties in this model”.
